# Conditions: from the results of Expt-II
substance,measurement,value
Phenylephrine Tannate,commercially available tannate salt complex soluble,at least 25.0%

# From US7094429B2, “Process for preparing tannate liquid and semi-solid dosage forms” (Kiel Laboratories, Inc., priority 2001, dated 2006)
